# Binding of CDR-mutated scFvs to a peptide of the spike HR2 region

Target: peptide PDVDLGDISGINAS, taken from heptad repeat 2 (HR2) of SARS-CoV-2 spike.

Ab-14 is the parent antibody, in scFv form: VH, then the linker GGGGSGGGGSGGGGS, then VL. The light chain is unchanged in all variants.
VH: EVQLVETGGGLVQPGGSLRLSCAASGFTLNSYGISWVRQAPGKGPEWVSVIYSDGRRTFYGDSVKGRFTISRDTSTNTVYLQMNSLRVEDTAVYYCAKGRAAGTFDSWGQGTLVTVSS
VL: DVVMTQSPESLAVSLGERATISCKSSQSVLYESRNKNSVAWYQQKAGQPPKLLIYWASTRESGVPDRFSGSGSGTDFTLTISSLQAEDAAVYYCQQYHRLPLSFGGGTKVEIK

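Phage display of a naive human antibody library on the peptide gave the parent. Designed CDR sequences, proposed from the first random library and measured here. Several design methods are mixed in this list. In AlphaSeq, yeast of one mating type display the scFv and yeast of the other type display the target. Mating (16 h, 30 °C) was followed by selection of diploids and sequencing of their barcodes. Scores were corrected for input abundance and mapped to Kd with protein pairs of known affinity run in the same pool. There are six technical replicates.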

Each variant is given by its three heavy chain CDRs, as the data file delimits them; those of the parent are GFTLNSYGIS, VIYSDGRRTFYGDSVK, GRAAGTFDS. Variants here have more than six changes. The Kd shown is the geometric mean over detected replicates; a lower Kd is a better binder. "no signal" means that the variant was in the library but no mating with the target was seen in any replicate; the authors take this as a sign of poor binding, and no number exists.

For GFDLDEYGIS / VIYADGKRTAYADSVK / GNQAGTFDT, the assay gave 350 pM (6 of 6 replicates; controls 0 of 18). Variant GQSLEEYGIS / VIYADGKRTQYKNSVK / GTNADDITV showed no signal (0 of 6 replicates; controls 0 of 18). With GFDLNEYGIS / VIYADGMRTVYADDVK / GNVAGTFDI the result was 160 pM (6 of 6 replicates; controls 0 of 18). Variant GFALDKYGIS / VIYADGSRSVYADDVK / GMLGATFGV gave 29 nM (6 of 6 replicates; controls 0 of 18). For GFSLDEYGIS / VIYADGMRTFYADSVK / GNVAGTFDS, the assay gave 1.1 nM (6 of 6 replicates; controls 0 of 18). For GFDLNEYGIS / VIYADGRRTFYTDSVK / GNHAGTFLV, the assay gave no signal (0 of 6 replicates; controls 0 of 18). Variant GFDLNEYGIS / VIYADGRRTFYIDSVK / GQVAGTFDK gave 170 pM (6 of 6 replicates; controls 0 of 18). Variant GFDLESYGIS / VIYADGMRTAYADSVK / GNVAGTFDV showed 180 pM (6 of 6 replicates; controls 2 of 18).

For GFDLDQYGIS / VIYADGMRAGYADSVK / GHWGGKFLM, the assay gave no signal (0 of 6 replicates; controls 0 of 18). Variant GFDLNSYGIS / VIYYNGQRTFEGDSVK / GTAAGWFNS gave 53 nM (1 of 6 replicates; controls 0 of 18). Variant GFSFDEYGIS / VIYADGKRQFYADTVK / GNKDMTFDI gave no signal (0 of 6 replicates; controls 0 of 18). Variant GFSLDEMGIS / VIYADGQRTSYVDNVK / GVQGMRVSL showed no signal (0 of 6 replicates; controls 0 of 18). Variant GFDLNEYGIS / VIYADGKRTFYADSVK / GNTAGTFDI showed 210 pM (6 of 6 replicates; controls 1 of 18). With GFDLNEYGIS / VIYADGKRTAYVDSVK / GNTAGTFDV the result was 220 pM (6 of 6 replicates; controls 1 of 18). For GFDLEEMGIS / VIYADGIRTAVSNDVK / GNVAGTGDV, the assay gave 50 nM (1 of 6 replicates; controls 0 of 18). Variant GFDLNEYGIS / VIYADGMRTAYTDNVK / GEVAGTFDV showed 610 pM (6 of 6 replicates; controls 0 of 18).

Variant GFDLTEYGIS / VIYADGRRTEYDNDVK / GQVAGHFLD gave no signal (0 of 6 replicates; controls 0 of 18). For GFDLNEYGIS / VIYADGVRTAYTDDVK / GENAGTFDV, the assay gave 330 pM (6 of 6 replicates; controls 0 of 18). Variant GFDLGEYGIS / VIYADGSRSAYAKNVK / GGSVYKDAV showed no signal (0 of 6 replicates; controls 0 of 18). With GFDLNEYGIS / VIYADGKRTAYADKVK / GGNAGTFDV the result was 300 pM (6 of 6 replicates; controls 0 of 18). With GFDLNEYGIS / VIYADGVRTAYADKVK / GNVAGTFDV the result was 240 pM (6 of 6 replicates; controls 0 of 18). Variant GRNLDEYGIS / VIYADGLRTSYRDNVK / GQNSGHLDM gave no signal (0 of 6 replicates; controls 0 of 18). Variant GFDLNEYGIS / VIYADGVRTAYIDSVK / GEIAGTFDS gave 480 pM (6 of 6 replicates; controls 0 of 18). With GFDLNEYGIS / VIYADGVRTSYADSVK / GNVAGTFDQ the result was 920 pM (6 of 6 replicates; controls 0 of 18).

For GFNLDEYGIS / VIYADGVRRAVIDNVK / GLVRVDFDL, the assay gave no signal (0 of 6 replicates; controls 0 of 18). For GFDLNEYGIS / VIYADGKRQAYADSVK / GNVAGTFDL, the assay gave 380 pM (6 of 6 replicates; controls 0 of 18). With GFELQEFGIS / VIYADGIRTNYSQNVK / GTLAGTFTQ the result was 57 nM (2 of 6 replicates; controls 0 of 18). Variant GFDLNEYGIS / VIYADGVRTFYSDSVK / GQNAGTFDV showed 340 pM (6 of 6 replicates; controls 0 of 18). With GFDLNEYGIS / VIYADGRRTFYSDSVK / GETAGFFDQ the result was 10 nM (6 of 6 replicates; controls 0 of 18). Variant GFDLNEYGIS / VIYADGQRTFYADSVK / GNLAGTFDQ gave 440 pM (6 of 6 replicates; controls 0 of 18). For GFDLNEYGIS / VIYADGMRTAYANSVK / GNVAGTFDM, the assay gave 470 pM (6 of 6 replicates; controls 2 of 18). For GFNLEEYGIS / VIYADGFRAAYKDKVK / GDDILLGVD, the assay gave no signal (0 of 6 replicates; controls 0 of 18).

For GFDVEKYGIS / VIYADGYRSAYASNVK / GGEAGNFHV, the assay gave no signal (0 of 6 replicates; controls 0 of 18). For GFELKEYGIS / VIYADGERAGYADNVK / GEAGGKFLV, the assay gave no signal (0 of 6 replicates; controls 0 of 18). With GFDLNEYGIS / VIYADGVRTGYQQQVK / GYHSFGLNQ the result was 410 nM (2 of 6 replicates; controls 0 of 18). Variant GFDLNEYGIS / VIYADGMRTSYADSVK / GENAGTFDT showed 2.1 nM (6 of 6 replicates; controls 0 of 18). For GFDLNEYGIS / VIYADGKRTVYADSVK / GETAGTFDV, the assay gave 540 pM (6 of 6 replicates; controls 0 of 18). With GFDLNEYGIS / VIYADGMRSAYADSVK / GNTAGTFDV the result was 670 pM (6 of 6 replicates; controls 0 of 18). Variant GFDLNEYGIS / VIYADGMRTYYADDVK / GNQAGTFDV showed 810 pM (6 of 6 replicates; controls 0 of 18). With GFDLNEYGIS / VIYADGRRTFYVDSVK / GEVAGTFNV the result was 340 pM (6 of 6 replicates; controls 0 of 18).

With GFDLDEYGIS / VIYADGKRTAYTDSVK / GNVAGTFDT the result was 510 pM (6 of 6 replicates; controls 0 of 18). Variant GFDLNEYGIS / VIYADGRRTFYADSVK / GEIAGTFDQ gave 4.2 nM (6 of 6 replicates; controls 1 of 18). With GFDINEYGIS / VIYADGMRTAYADSVK / GNNAGTFDV the result was 340 pM (6 of 6 replicates; controls 0 of 18). With GFDLDEYGIS / VIYADGRRTFYSDNVK / GEVAGTFDI the result was 390 pM (6 of 6 replicates; controls 1 of 18). For GLDLESYGIS / VIYADGRRKAYHDSVK / GTNGGVSFV, the assay gave no signal (0 of 6 replicates; controls 0 of 18). Variant GFNLEEYGIS / VIYADGMRSEYTDNVK / GHKGNWFQD showed 3.4 nM (6 of 6 replicates; controls 1 of 18). For GFDLNEYGIS / VIYADGQRTFYDDSVK / GQLAGTFDL, the assay gave 3.1 nM (6 of 6 replicates; controls 0 of 18).

For reference, 3 entries of the list once more:

| CDR-H1 | CDR-H2 | CDR-H3 | apparent Kd | seen in | control signals |
|---|---|---|---|---|---|
| GFDLNEYGIS | VIYADGRRTFYSDSVK | GETAGFFDQ | 10 nM | 6 of 6 | 0 of 18 |
| GLDLESYGIS | VIYADGRRKAYHDSVK | GTNGGVSFV | no signal | 0 of 6 | 0 of 18 |
| GFSFDEYGIS | VIYADGKRQFYADTVK | GNKDMTFDI | no signal | 0 of 6 | 0 of 18 |

A sequence measured in both rounds can read differently, since the two assays cover different ranges. Background: pairings of all heavy chain designs with three empty control strains gave a value in 1% of cases (median 120 nM, 5th percentile 7.0 nM). Values in that range, when seen in few replicates, are hard to tell from nonspecific mating. The control count says in how many pairings with the empty strains this scFv gave a signal. The parent sequence was in this pool as ten entries: three were never detected, three once, and four in most replicates, with averages from 2.2 nM to 240 nM. In the paper, a design with two or fewer of six values counts as a poor binder.

Data: MIT Lincoln Laboratory AlphaSeq set, Li et al. 2023, doi:10.1038/s41467-023-39022-2, as distributed in FLAb.